Experiments:
[1] = target: Adrenergic receptor alpha-1 (Rattus norvegicus, UniProt P15823+P23944+P43140); experiment: Binding affinity against Alpha-1 adrenergic receptor, activity is expressed as IC50 values; format: protein assay
[2] = target: D(2) dopamine receptor (Rattus norvegicus, UniProt P61169); experiment: Binding affinity against dopamine receptor D2

Sequences of proteins named here, by UniProt entry; tags and fusion partners are left off. A change or cut given only in a name is not applied to a line headed by its entry.
UniProt P15823: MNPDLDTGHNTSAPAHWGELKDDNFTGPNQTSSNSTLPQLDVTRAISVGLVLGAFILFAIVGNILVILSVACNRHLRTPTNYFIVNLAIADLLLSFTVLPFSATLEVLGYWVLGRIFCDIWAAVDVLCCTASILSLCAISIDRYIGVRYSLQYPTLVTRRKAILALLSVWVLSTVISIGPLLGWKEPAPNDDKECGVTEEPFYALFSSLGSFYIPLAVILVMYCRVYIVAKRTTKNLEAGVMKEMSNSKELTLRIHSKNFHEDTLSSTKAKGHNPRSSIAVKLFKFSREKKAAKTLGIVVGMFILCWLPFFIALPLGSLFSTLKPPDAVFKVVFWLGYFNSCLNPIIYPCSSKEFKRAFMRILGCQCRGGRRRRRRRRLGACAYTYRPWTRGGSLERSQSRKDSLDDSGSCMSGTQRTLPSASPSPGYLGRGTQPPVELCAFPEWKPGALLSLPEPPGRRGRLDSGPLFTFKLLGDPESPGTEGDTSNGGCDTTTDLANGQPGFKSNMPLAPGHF
UniProt P23944: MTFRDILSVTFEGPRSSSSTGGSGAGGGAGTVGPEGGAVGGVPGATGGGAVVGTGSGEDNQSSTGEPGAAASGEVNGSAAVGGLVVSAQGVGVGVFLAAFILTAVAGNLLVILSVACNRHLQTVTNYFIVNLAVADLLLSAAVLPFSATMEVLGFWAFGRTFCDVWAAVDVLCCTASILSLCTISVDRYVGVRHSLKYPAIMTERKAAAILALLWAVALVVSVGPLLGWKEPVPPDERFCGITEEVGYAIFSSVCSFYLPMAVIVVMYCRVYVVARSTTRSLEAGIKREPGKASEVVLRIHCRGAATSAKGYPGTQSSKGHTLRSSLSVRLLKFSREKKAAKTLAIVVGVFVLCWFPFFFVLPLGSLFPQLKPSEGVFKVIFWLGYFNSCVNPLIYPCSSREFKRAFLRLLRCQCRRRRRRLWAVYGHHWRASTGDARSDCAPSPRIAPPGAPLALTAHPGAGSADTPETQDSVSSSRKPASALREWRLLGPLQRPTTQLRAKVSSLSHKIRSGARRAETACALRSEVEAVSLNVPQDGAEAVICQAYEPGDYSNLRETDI
UniProt P43140: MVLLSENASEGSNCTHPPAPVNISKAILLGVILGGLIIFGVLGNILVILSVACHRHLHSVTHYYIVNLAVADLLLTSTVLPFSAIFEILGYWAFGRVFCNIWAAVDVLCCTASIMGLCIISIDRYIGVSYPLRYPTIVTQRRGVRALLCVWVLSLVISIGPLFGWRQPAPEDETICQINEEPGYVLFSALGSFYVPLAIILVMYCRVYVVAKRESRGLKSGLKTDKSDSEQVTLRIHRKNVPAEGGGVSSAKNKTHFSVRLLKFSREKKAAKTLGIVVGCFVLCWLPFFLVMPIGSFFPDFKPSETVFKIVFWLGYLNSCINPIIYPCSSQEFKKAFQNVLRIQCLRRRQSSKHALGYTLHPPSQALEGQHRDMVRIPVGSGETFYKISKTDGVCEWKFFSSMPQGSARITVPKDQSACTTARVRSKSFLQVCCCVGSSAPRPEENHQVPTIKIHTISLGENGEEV
UniProt P61169, whole entry: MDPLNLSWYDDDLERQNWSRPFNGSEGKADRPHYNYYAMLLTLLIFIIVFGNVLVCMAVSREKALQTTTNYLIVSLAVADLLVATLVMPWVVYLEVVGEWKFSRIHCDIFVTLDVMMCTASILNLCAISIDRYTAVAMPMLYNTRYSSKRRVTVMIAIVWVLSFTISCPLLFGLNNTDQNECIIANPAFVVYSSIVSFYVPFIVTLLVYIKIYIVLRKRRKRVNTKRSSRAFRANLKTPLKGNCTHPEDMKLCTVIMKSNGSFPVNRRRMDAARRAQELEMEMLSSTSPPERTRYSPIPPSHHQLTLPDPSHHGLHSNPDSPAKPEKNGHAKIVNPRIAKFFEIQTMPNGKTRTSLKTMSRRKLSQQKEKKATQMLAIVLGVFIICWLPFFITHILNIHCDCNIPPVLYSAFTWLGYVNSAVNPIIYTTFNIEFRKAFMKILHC

| Compound | IC50 [1] [nM] | IC50 [2] [nM] |
| --- | --- | --- |
| CN1CCN(C2CC(c3ccc(F)cc3)c3ccc(Cl)cc32)CC1(C)C (stereo in doubt; 28) | 4.9 |  |
| CN1CCN(C2CC(c3ccc(F)cc3)c3ccc(Cl)cc32)CC12CCCC2 (stereo in doubt; 34) |  | 10 |
| CN1CCN(C2CC(c3ccc(F)cc3)c3ccc(Cl)cc32)CC12CCCC2 (stereo in doubt; (-)-34) |  | 4.5 |
| CN1CCN(C2CC(c3ccc(F)cc3)c3ccc(Cl)cc32)CC1(C)C (stereo in doubt; (-)-28) | 3.9 |  |
| CN1CCN(C2CC(c3ccc(F)cc3)c3ccc(Cl)cc32)CC12CCCC2 (single isomer, unassigned; (+)) |  | 20 |
| CC(C)N1CCN(C2CC(c3ccc(F)cc3)c3ccc(Cl)cc32)CC1(C)C (single isomer, unassigned; (-)) |  | 3.1 |
| CC(C)N1CCN(C2CC(c3ccc(F)cc3)c3ccc(Cl)cc32)CC1(C)C (stereo in doubt; 29) |  | 5 |
